{"source": "patent US12472235B2", "about": "“Treatment of diseases with sequential administration of an agent capable of up-regulating CD73 and glucocorticoids” (FARON PHARMACEUTICALS OY, priority 2021, dated 2025)", "key": {"CD73": {"tested_on": "CD73", "experiment": "INFORAAA clinical trial (NCT03119701), CD73 response in patients after emergency aortic surgery", "type": "in vivo, human", "text": "(§1) The following Figures show CD73 (organ protective) and MxA (anti-viral) responses in patients treated with intravenous interferon beta for the prevention of SIRS leading to MODS, and death that have survived emergency aortic surgery (ClinicalTrials.gov; NCT03119701). More detailed,\n(§2) In a clinical trial for the prevention of MODS after emergency aortic surgery (ClinicalTrials.gov; NCT03119701: Efficacy and Safety of FP-1201-Iyo (Interferon Beta-1a) in Prevention of Multi-Organ Failure on Patients After Open Surgery for a RAAA (INFORAAA)), 10 μg of interferon beta-1a or placebo has been intravenously administered to the patients with or without steroids, such as glucocorticoids, for up to 6 days every 24 hours. FP-1201-Iyo (Traumakine, Faron Pharmaceuticals Oy) comprises interferon beta-1a as an active ingredient.\n(§3) FIGS. 1 and 2 show an up-regulation of MxA (myxovirus resistance protein A) and CD73 during the trial presented as the individual plots for each patient. CD73 responses/induction was often observed after 3 consecutive days of IFN beta-1a administration, sometimes longer administration was needed. […] FIG. 3 includes also patients treated with placebo."}, "[1]": {"experiment": "INTEREST Trial (NCT02622724), intravenous IFN beta for the treatment of ARDS, mortality", "type": "in vivo, human", "text": "In the pre-clinical work and multiple clinical trials including major ongoing trials for COVID-19 but also clinical trials which have been conducted on the use of Interferon beta (IFN beta) in attempt to induce CD73 for organ protection; these trials include two trials for ARDS (ClinicalTrials.gov; NCT00789685 and NCT02622724) and a trial for the prevention of multiple organ dysfunction syndrome (MODS) after emergency aortic surgery (ClinicalTrials.gov; NCT03119701), have shown that the administration of glucocorticoids in the early phase of the diseases which led to SIRS increases mortality in patients. […] The 28-day mortality was not increased in patients that first received IFN beta and then glucocorticoids, even though glucocorticoid use overall was associated with worse survival."}, "[2]": {"tested_on": "MxA (myxovirus resistance protein A)", "experiment": "INFORAAA clinical trial (NCT03119701), MxA response in patients after emergency aortic surgery", "type": "in vivo, human", "settings": "10 μg intravenously every 24 hours for up to 6 days, with or without simultaneous steroids such as a glucocorticoid, FIG. 1", "text": "as §1\nMxA is a classical pharmacodynamic marker for IFN beta drug activity, but it only measures anti-viral activity.\nas §2, §3"}, "[3]": {"settings": "ARDS patients, intravenous IFN beta with simultaneous glucocorticoids; as previously reported [2]; cited from earlier work"}}}
{"molecule": "interferon beta-1a (protein, UniProt P01574 22-187, looked up) Interferon beta: MSYNLLGFLQRSSNFQCQKLLWQLNGRLEYCLKDRMNFDIPEEIKQLQQFQKEDAALTIYEMLQNIFAIFRQDSSSTGWNETIVENLLANVYHQINHLKTVLEEKLEKEDFTRGKLMSSLHLKRYYGRILHYLKAKEYSHCAWTIVRVEILRNFYFINRLTGYLRN", "values": [{"measurement": "up-regulation of CD73", "setting": "CD73; 10 μg intravenously every 24 hours for up to 6 days, used with steroids such as glucocorticoids, FIG. 2", "value": "no up-regulation of CD73"}, {"measurement": "time of administration until CD73 response/induction observed", "setting": "CD73; 10 μg intravenously every 24 hours, sometimes longer administration was needed", "value": "~3", "unit": "consecutive days"}, {"measurement": "mortality if glucocorticoids were used after IFN beta treatment", "setting": "[1]; ARDS patients, intravenous IFN beta followed by glucocorticoids", "value": "significantly lower"}, {"measurement": "28-day mortality in patients that first received IFN beta and then glucocorticoids", "setting": "[1]; sequential IFN beta then glucocorticoids", "value": "not increased"}, {"measurement": "up-regulation of MxA", "setting": "[2]", "value": "up-regulation of MxA (myxovirus resistance protein A) observed in all patients"}, {"measurement": "28-day mortality, glucocorticoids with IFN beta compared to IFN beta without steroids", "setting": "[3]", "value": "significant"}]}
